Results reported in patent EP4837903A1, “TETRAZOLE COMPOUND, PHARMACEUTICAL COMPOSITION THEREOF AND USE THEREOF” (dated 2026).

Test system: not listed separately
Assay: Rat pharmacokinetic study (oral gavage)
Conditions: male SD rats, oral gavage 10 mg/kg, vehicle water, plasma
Protocol: For the rat pharmacokinetic study, male SD rats (Shanghai Jihui) weighing 200-250 g each were fasted overnight. Six rats were administered Compounds 1-4 of the present invention and Vofopitant separately by oral gavage at a dose of 10 mg/kg, with water as the vehicle. Blood samples were collected before administration and at 15 min, 30 min, 1 h, 2 h, 4 h, 6 h, 8 h, 10 h, and 24 h after administration. Blood samples of 0.2 mL were collected into labeled tubes containing EDTA-2K anticoagulant. The tubes were gently inverted to mix the anticoagulant (EDTA-2K) thoroughly with the blood, immediately placed in wet ice, and centrifuged to separate plasma within 1 hour after blood collection. Centrifugation conditions were 4°C, 6800 × g, for 6 minutes. The separated plasma was transferred to labeled Eppendorf tubes and stored in an ultra-low temperature freezer as soon as possible until sample analysis. Major pharmacokinetic parameters were analyzed using WinNonlin 7.0 software with a non-compartmental model. Table 3: Rat pharmacokinetic study results.
Herein, Cmax represents peak concentration, Tmax represents time to peak concentration, AUC represents area under the plasma concentration-time curve, T1/2 represents elimination half-life, and F represents bioavailability.

Structure (SMILES) | AUC0-24h [ng·h/mL] | Cmax [ng/mL] | T1/2 [min] | Tmax [min]
[2H]C([2H])([2H])Oc1ccc(-n2nnnc2C(F)(F)F)cc1CN[C@@H]1CCCN[C@H]1c1ccccc1 | 3216 | 972 | 82.8 | 15
[2H]C([2H])([2H])Oc1ccc(-n2nnnc2C(F)(F)F)cc1CN[C@H]1CCCN[C@@H]1c1ccccc1 | 3873 | 1310 | 104 | 15
[2H]C([2H])([2H])Oc1ccc(-n2nnnc2C(F)(F)F)cc1CN[C@H]1CCCN[C@H]1c1ccccc1 | 3867 | 1210 | 102 | 15
COc1ccc(-n2nnnc2C(F)(F)F)cc1CN[C@H]1CCCN[C@H]1c1ccccc1 | 3367 | 929 | 100 | 30
[2H]C([2H])([2H])Oc1ccc(-n2nnnc2C(F)(F)F)cc1CN[C@@H]1CCCN[C@@H]1c1ccccc1 | 3708 | 1164 | 96 | 15

Same assay, conditions: male SD rats, oral gavage 10 mg/kg, vehicle water; bioavailability

Structure (SMILES) | F [%]
[2H]C([2H])([2H])Oc1ccc(-n2nnnc2C(F)(F)F)cc1CN[C@@H]1CCCN[C@H]1c1ccccc1 | 65.5
[2H]C([2H])([2H])Oc1ccc(-n2nnnc2C(F)(F)F)cc1CN[C@H]1CCCN[C@@H]1c1ccccc1 | 78.8
[2H]C([2H])([2H])Oc1ccc(-n2nnnc2C(F)(F)F)cc1CN[C@H]1CCCN[C@H]1c1ccccc1 | 78.7
COc1ccc(-n2nnnc2C(F)(F)F)cc1CN[C@H]1CCCN[C@H]1c1ccccc1 | 56.5
[2H]C([2H])([2H])Oc1ccc(-n2nnnc2C(F)(F)F)cc1CN[C@@H]1CCCN[C@@H]1c1ccccc1 | 74.3

Test system: bleomycin-induced pulmonary fibrosis mice
Assay: Survival rate in bleomycin-induced pulmonary fibrosis mouse model
Conditions: bleomycin 1 mg/kg intratracheal; 30 mg/kg by gavage, treatment from day 7 for 14 days, 21 days in total; 6 mice per group
Protocol: The oral medicaments in this example comprise an active pharmaceutical ingredient and a solvent.
The active pharmaceutical ingredient is Compound 1 to Compound 4, at a dosage of 30 mg/kg. The solvent is water.
(§1) Pulmonary fibrosis model establishment: Male C57BL6J mice (Vital River, C57BL/6JNifdc), aged 6-8 weeks, were adaptively fed for one week and divided into a model group (6 mice), a Compound 1 treatment group (6 mice), a Compound 2 treatment group (6 mice), a Compound 3 treatment group (6 mice), a Compound 4 treatment group (6 mice), a Vofopitant treatment group (6 mice), a Nintedanib (Nintedanib is a commonly used drug in the prior art for treating IPF) treatment group (6 mice), and a control group (6 mice).
(§2) Preparation of bleomycin solution: Bleomycin dry powder was prepared to the desired concentration using sterile PBS.
(§3) Non-surgical method for intratracheal instillation of bleomycin into mouse lungs: Mice were anesthetized with isoflurane and suspended on an operating board at a 70° angle. Bleomycin was instilled intratracheally using a 200 µL pipette.
(§4) On the first day, the model group and each treatment group received intratracheal instillation of bleomycin solution (1 mg/kg/50 µL). The control group received an equal volume of normal saline. Treatment began 7 days after model establishment and continued for 14 days, totaling 21 days.
(§5) Compounds 1 to 4 were each dissolved in water to prepare 30 mg/mL stock solutions. For working solutions, the stock solutions were diluted 5-fold with autoclaved water to the required volume. Each mouse received Compound 1 to Compound 4 at a dose of 30 mg/kg, administered by gavage.
(§6) Vofopitant was dissolved in water to prepare a 30 mg/mL stock solution. For the working solution, the stock solution was diluted 5-fold with autoclaved water to the required volume. Each mouse received Vofopitant at a dose of 30 mg/kg, administered by gavage.
(§7) Preparation, dosage, and administration of Nintedanib drug solution: Nintedanib was dissolved in DMSO to prepare a stock solution (40 mg/mL). For the working solution, the stock solution was diluted 7-fold with 20% SBE-β-CD physiological saline solution to the required volume and mixed well. Each mouse received Nintedanib at a dose of 30 mg/kg, administered by gavage.
Furthermore, the effects of Compounds 1 to 4 were 1.2 times that of the Vofopitant group and 1.6 times that of the Nintedanib group.

Structure (SMILES) | Survival Rate [%]
[2H]C([2H])([2H])Oc1ccc(-n2nnnc2C(F)(F)F)cc1CN[C@@H]1CCCN[C@H]1c1ccccc1 | 83.33
[2H]C([2H])([2H])Oc1ccc(-n2nnnc2C(F)(F)F)cc1CN[C@H]1CCCN[C@H]1c1ccccc1 | 83.33
COc1ccc(-n2nnnc2C(F)(F)F)cc1CN[C@H]1CCCN[C@H]1c1ccccc1 | 66.67
[2H]C([2H])([2H])Oc1ccc(-n2nnnc2C(F)(F)F)cc1CN[C@@H]1CCCN[C@@H]1c1ccccc1 | 83.33
COC(=O)c1ccc2c(c1)NC(=O)/C2=C(\Nc1ccc(N(C)C(=O)CN2CCN(C)CC2)cc1)c1ccccc1 | 50.00

Test system: bleomycin-induced pulmonary fibrosis mice
Assay: MASSON staining of lung tissue, modified Ashcroft scale scoring, in bleomycin-induced pulmonary fibrosis mouse model
Conditions: bleomycin 1 mg/kg intratracheal; 30 mg/kg by gavage, treatment from day 7 for 14 days; MASSON staining of lung sections
Text: as §1, §2, §3, §4, §5, §6, §7
MASSON staining: Mouse lung tissue samples were fixed in 4% paraformaldehyde for 24 hours, dehydrated through a graded alcohol series, embedded in paraffin, cut into 5 µm sections, and subjected to MASSON staining. After clearing with xylene, the sections were mounted with neutral balsam. Pathological changes in the lungs were observed and photographed under an optical microscope.
The scoring criteria for the modified Ashcroft scale are as follows:
As shown by the scoring results in Table 2, compared with the control group, the degree of pulmonary fibrosis injury in the model group mice was exacerbated. The Compound 1 to Compound 4 treatment groups, the Vofopitant treatment group, and the Nintedanib treatment group all ameliorated the degree of pulmonary fibrosis injury in mice.

Structure (SMILES) | Modified Ashcroft Score
[2H]C([2H])([2H])Oc1ccc(-n2nnnc2C(F)(F)F)cc1CN[C@@H]1CCCN[C@H]1c1ccccc1 | 2.902 ±0.248
[2H]C([2H])([2H])Oc1ccc(-n2nnnc2C(F)(F)F)cc1CN[C@H]1CCCN[C@@H]1c1ccccc1 | 2.635 ±0.207
[2H]C([2H])([2H])Oc1ccc(-n2nnnc2C(F)(F)F)cc1CN[C@H]1CCCN[C@H]1c1ccccc1 | 2.475± 0.269
COc1ccc(-n2nnnc2C(F)(F)F)cc1CN[C@H]1CCCN[C@H]1c1ccccc1 | 3.482 ±0.179
[2H]C([2H])([2H])Oc1ccc(-n2nnnc2C(F)(F)F)cc1CN[C@@H]1CCCN[C@@H]1c1ccccc1 | 2.797 ±0.259
COC(=O)c1ccc2c(c1)NC(=O)/C2=C(\Nc1ccc(N(C)C(=O)CN2CCN(C)CC2)cc1)c1ccccc1 | 4.465 ±0.270
